Laboratory results reported in ChEMBL document CHEMBL3638480, “Inhibitors” (2013).
pIC50: −log10 of the molar value.

By UniProt entry, the sequences of proteins in these tests, tags left out. Where a name states a change or a piece, a line headed by the entry shows the natural chain unless it says otherwise.
UniProt Q16769: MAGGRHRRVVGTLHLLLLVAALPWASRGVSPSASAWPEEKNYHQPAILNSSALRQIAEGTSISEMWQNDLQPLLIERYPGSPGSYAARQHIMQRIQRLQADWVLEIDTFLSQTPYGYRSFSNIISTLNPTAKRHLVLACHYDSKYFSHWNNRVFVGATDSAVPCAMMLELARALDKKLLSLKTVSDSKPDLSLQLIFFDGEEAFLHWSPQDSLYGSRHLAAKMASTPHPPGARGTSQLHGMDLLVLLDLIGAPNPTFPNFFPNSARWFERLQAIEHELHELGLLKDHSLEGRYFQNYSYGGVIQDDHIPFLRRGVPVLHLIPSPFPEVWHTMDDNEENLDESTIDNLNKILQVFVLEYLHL

Molecular target: Glutaminyl-peptide cyclotransferase (Homo sapiens, UniProt Q16769)
Test: Spectrophotometic Assay: Spectrophotometic Assay: This novel assay was used to determine the kinetic parameters for most of the QC substrates. QC activity was analyzed spectrophotometrically using a continuous method, that was derived by adapting a previous discontinuous assay (Bateman, R.C.J. 1989 J Neurosci Methods 30, 23-28).

Structure (SMILES)	pIC50
O=C1O[C@H](c2ccccc2)[C@H](c2ccccc2)N1c1ccc2nc[nH]c2c1	> 5.00
O=C1OC[C@H](c2ccc3c(c2)OCCO3)N1c1ccn2ccnc2c1	> 5.00
